Data on one compound can be found in ChEMBL document CHEMBL5726217, “Therapeutic compounds, compositions and methods of use thereof” (2019).

Sequences of proteins named here, by UniProt entry; tags and fusion partners are left off. A change or cut given only in a name is not applied to a line headed by its entry.
UniProt O60674: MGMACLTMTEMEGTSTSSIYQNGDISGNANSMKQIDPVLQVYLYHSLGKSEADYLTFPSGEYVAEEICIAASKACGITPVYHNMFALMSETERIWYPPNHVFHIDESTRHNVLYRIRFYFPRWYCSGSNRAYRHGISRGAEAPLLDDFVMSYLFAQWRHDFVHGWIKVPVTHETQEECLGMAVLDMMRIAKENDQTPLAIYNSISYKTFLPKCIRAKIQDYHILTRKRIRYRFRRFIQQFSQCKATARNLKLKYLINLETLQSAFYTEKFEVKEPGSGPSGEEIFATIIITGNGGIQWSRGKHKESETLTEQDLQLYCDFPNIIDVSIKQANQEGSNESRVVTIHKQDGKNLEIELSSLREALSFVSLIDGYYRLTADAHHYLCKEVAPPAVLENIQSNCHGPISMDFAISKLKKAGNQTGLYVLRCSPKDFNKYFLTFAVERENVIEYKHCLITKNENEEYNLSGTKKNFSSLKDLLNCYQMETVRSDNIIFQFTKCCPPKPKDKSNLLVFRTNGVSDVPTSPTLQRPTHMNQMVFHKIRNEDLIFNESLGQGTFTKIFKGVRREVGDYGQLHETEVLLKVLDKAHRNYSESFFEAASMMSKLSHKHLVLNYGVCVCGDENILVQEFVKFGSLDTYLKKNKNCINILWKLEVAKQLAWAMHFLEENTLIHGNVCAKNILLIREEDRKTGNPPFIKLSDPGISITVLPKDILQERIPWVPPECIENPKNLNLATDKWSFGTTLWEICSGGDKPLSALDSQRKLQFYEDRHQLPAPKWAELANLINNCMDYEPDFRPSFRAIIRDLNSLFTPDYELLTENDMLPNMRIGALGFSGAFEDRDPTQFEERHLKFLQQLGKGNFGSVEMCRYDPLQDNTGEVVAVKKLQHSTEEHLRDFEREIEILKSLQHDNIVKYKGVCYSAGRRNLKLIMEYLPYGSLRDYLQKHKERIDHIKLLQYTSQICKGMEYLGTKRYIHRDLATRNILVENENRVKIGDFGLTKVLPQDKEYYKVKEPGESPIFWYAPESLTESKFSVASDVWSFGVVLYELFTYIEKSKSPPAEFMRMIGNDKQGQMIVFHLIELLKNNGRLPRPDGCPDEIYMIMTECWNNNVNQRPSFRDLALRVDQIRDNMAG

The target of this test is Tyrosine-protein kinase JAK2 (Homo sapiens, UniProt O60674).

The compound `CN1CCN(C(=O)Cn2cc(Nc3nc4c(N5C[C@H]6C[C@@H]5CN6C(=O)CCC(F)(F)F)cccn4n3)cn2)CC1` displayed an inhibition constant (Ki) of 110 nM.

Broadly, the Ki is the dissociation constant of the complex between target and ligand, obtained from inhibition or displacement. Low readings indicate tighter binding, high ones weaker binding.
